Test results published in ChEMBL document CHEMBL4342488, “Structure-Activity Relationship Study of Covalent Pan-phosphatidylinositol 5-Phosphate 4-Kinase Inhibitors” (ACS Med Chem Lett, 2020).

How the values were obtained:
[1] = target: T1, Phosphatidylinositol 5-phosphate 4-kinase type-2 beta (Homo sapiens, UniProt P78356); assay: Inhibition of PI5P4Kbeta (unknown origin) incubated for 15 mins in presence of ATP by ADP-Glo assay
T1 sequence (P78356 whole entry): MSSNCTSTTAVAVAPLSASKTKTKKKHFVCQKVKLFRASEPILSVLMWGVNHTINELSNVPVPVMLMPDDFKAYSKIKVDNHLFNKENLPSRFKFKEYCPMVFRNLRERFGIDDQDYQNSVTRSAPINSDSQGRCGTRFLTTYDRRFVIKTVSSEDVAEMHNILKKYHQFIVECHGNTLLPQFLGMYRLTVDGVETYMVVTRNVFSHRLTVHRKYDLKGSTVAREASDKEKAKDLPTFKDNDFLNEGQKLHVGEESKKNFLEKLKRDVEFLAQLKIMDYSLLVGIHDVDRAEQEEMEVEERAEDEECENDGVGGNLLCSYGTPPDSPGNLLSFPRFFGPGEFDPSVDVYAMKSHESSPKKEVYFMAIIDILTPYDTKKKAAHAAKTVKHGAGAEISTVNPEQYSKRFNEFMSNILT

[2] = target: T2, Phosphatidylinositol 5-phosphate 4-kinase type-2 alpha (Homo sapiens, UniProt P48426); assay: Inhibition of PI5P4Kalpha (unknown origin) incubated for 15 mins in presence of ATP by ADP-Glo assay
T2 sequence (P48426 whole entry): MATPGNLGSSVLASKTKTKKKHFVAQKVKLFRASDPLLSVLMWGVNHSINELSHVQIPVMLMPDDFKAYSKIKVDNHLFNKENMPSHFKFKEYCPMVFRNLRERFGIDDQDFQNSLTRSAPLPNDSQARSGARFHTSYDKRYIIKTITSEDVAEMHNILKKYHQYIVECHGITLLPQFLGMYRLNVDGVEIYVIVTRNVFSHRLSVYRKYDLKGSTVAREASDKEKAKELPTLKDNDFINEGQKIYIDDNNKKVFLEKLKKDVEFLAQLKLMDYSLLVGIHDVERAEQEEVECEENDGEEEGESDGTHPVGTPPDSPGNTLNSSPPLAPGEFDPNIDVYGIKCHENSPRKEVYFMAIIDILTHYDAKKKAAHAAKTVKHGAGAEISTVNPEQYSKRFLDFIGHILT

CN(C)C/C=C/C(=O)Nc1ccc(C(=O)Nc2cccc(Nc3cc(-c4c[nH]c5ccccc45)ncn3)c2)cc1
IC50 [1]: 5.9 µM
IC50 [2]: 0.95 µM
